From BindingDB's records for 11591513 (Harvard Medical School, 2001)

Protein sequences, listed by entry. Tags and fused reporters are not part of them.
UniProt P41143, whole entry, looked up: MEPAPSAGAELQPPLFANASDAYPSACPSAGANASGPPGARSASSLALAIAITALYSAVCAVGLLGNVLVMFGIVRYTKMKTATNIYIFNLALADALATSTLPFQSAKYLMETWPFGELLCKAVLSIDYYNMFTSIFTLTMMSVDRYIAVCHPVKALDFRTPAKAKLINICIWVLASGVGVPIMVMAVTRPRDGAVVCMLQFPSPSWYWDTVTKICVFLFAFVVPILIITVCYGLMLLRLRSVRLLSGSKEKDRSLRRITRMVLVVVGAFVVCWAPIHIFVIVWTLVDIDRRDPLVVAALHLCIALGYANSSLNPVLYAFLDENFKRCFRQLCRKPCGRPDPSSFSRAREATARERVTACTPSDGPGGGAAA

Target: Delta-type opioid receptor (Homo sapiens, UniProt P41143)
Assay: ChEBML_147151

Question: For CN(C(=O)Cc1ccc(Cl)c(Cl)c1)[C@@H]1CCCC[C@H]1N1CCCC1, which Ki is on record?
Answer: The Ki was 2500 nM.
